Test results taken from PubChem BioAssay AID2305 (GlaxoSmithKline (GSK), 2010).

Tested on: P. falciparum 3D7 growth, pLDH absorbance
Assay: P. falciparum 3D7 growth inhibition, dose response, strain 3D7 (AID 2305)

| Compound | IC50 [nM] |
| --- | --- |
| CCN1CCCC(OC(=O)C(O)(c2ccc3c(c2)OCO3)c2ccc3c(c2)OCO3)C1 (configuration not stated) | 780 |
| CCN1CCCC1COC(=O)C(O)(c1ccc2c(c1)OCO2)c1ccc2c(c1)OCO2 (configuration not stated) | 800 |
